The entries are a selection whose mix differs from that of the whole data set. Activity calls are given as the source filed them.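 How the source made its calls: active means inhibition above about 20% chosen separately for each screening run (limit read from the data); inactive means the rest.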

Sequences of proteins named here, by UniProt entry; tags and fusion partners are left off. Residues count along the entry.
UniProt O14672, 214-748 limits assumed: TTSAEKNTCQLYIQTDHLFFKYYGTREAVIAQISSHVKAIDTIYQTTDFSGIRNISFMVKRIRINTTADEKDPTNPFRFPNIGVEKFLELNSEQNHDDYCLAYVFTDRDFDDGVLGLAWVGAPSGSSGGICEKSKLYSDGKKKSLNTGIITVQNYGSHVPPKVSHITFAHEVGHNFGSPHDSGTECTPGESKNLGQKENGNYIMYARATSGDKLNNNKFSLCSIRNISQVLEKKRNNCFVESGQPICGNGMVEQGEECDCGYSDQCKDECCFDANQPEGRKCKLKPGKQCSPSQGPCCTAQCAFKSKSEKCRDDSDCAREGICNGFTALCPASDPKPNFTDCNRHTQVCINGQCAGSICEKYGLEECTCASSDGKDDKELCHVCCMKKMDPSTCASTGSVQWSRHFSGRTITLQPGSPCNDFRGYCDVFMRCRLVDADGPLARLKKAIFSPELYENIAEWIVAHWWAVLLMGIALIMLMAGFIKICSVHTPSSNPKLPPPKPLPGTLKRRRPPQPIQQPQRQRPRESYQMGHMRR

The target of this assay is Disintegrin and metalloproteinase domain-containing protein 10 (Homo sapiens) (UniProt O14672). As to the kind of experiment: human ADAM10 inhibitors, confirmation, biochemical, QFRET, triplicate (AID 743208).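 Further: 0% = DMSO wells and 100% = marimastat wells.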 To be noted: ADAM10 QFRET peptide cleavage, EDANS fluorescence; at 6.95 µM; active compounds read high. The procedure, abridged:
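Assay system: human ADAM10 protease with quenched EDANS/DABCYL DM2 peptide / Input: ADAM10 at 20 nM (2X solution) / Dosing: 6.95 µM single dose / Incubation: compound-enzyme preincubation 30 min, then 3 h substrate reaction, both 25 °C / Technique: FRET fluorescence, ex 359 nm, em 460 nm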
Turning to `CCCCn1nnnc1C(c1cccc2ccccc12)N1CCC(n2c(=O)[nH]c3ccccc32)CC1` (stereo unspecified), the inhibition is inactive: 9.25%.

The term inhibition denotes the percentage by which the read-out fell short of the control.

For the origin of these results see PubChem BioAssay AID743208 (The Scripps Research Institute Molecular Screening Center, 2013).
